Inhibition data for nine compounds are collected here from ChEMBL document CHEMBL3232937.

Chains of the proteins cited; added tags and fusions are not shown. Lines headed by an entry give the natural chain unless they say otherwise; changes in a name come on top.
UniProt P48730: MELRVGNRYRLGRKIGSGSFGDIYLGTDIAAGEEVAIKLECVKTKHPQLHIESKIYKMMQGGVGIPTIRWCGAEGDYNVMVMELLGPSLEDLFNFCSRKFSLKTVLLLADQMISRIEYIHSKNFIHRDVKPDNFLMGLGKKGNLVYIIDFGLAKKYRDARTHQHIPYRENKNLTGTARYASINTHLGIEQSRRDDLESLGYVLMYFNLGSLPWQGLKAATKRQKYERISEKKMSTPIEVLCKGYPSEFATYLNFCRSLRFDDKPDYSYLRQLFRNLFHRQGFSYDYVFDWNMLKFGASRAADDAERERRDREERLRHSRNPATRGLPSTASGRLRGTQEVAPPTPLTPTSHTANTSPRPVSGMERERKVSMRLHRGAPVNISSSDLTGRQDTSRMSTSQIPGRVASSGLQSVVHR

The inhibition is the relative decrease from the control value, in per cent. Low values mean little suppression, high ones strong suppression.

Each structure is given as a SMILES string.
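Also: recombinant enzyme with casein substrate, activity read by Kinase-Glo luminescence after 60 min, inhibition expressed relative to untreated control.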

In the experiment the target is Casein kinase I isoform delta (Homo sapiens, UniProt P48730). As to conditions: at 10 µM.
`COc1ccccc1C(=O)Nc1nc2ccc(C(F)(F)F)cc2s1` showed an inhibition of 25%.

The compound `COc1ccccc1CC(=O)Nc1nc2ccccc2o1` had an inhibition of 24%.

For `Cn1c(NC(=O)Cc2cccc(Cl)c2)nc2ccccc21`, the inhibition came to 27%.

In the case of `Cc1cccc2sc(NC(=O)Cc3cccc(Cl)c3)nc12`, the inhibition came to 20%.

For the compound `COc1ccccc1CCNc1nc2ccc(C(F)(F)F)cc2s1`, the inhibition amounted to 25%.

For `O=C(Cc1cccc(Cl)c1)Nc1ncccn1`, the inhibition came to 20%.

`O=C(Cc1cccc(Cl)c1)Nc1nc2c(Cl)cccc2s1` returned an inhibition of 20%.

In turn, `O=C(Cc1ccc(Cl)cc1)Oc1nc2ccccc2s1` came in with an inhibition of 20%.

As to `Cn1c(NC(=O)Cc2ccc(Cl)cc2)nc2ccccc21`, the inhibition is 31%.
